Laboratory results: article PMC10675604, “Cetirizine and Levetiracetam as Inhibitors of Monoacylglycerol Lipase: Investigating Their Repurposing Potential as Novel Osteoarthritic Pain Therapies” (Pharmaceuticals, 2023)

Sequences of proteins named here, by UniProt entry; tags and fusion partners are left off.
UniProt Q99685, whole entry: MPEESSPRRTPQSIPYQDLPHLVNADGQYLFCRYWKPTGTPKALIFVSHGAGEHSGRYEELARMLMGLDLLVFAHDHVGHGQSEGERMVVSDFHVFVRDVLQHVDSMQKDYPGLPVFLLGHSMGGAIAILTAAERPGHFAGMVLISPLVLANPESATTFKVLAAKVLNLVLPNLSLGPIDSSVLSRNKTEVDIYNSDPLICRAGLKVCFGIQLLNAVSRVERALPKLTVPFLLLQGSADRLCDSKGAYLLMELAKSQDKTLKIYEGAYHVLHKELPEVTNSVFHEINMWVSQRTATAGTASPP

Biological target: T1, monoacylglycerol lipase (MAGL) (Homo sapiens, UniProt Q99685)
T1 construct: gene MGLL
Experiment: biochemical

Compound: O=C(Oc1ccc([N+](=O)[O-])cc1)N1CCN(Cc2cccc(Oc3ccccc3)c2)CC1 [JZL 195]
- IC50: 8 nM
